Measured values as given in US9616065B2, “Compositions useful in treating brain-related diseases or disorders and methods using same” (priority 2013, dated 2017).

Chains of the proteins cited; added tags and fusions are not shown.
UniProt Q3I1M7, entry or part of it: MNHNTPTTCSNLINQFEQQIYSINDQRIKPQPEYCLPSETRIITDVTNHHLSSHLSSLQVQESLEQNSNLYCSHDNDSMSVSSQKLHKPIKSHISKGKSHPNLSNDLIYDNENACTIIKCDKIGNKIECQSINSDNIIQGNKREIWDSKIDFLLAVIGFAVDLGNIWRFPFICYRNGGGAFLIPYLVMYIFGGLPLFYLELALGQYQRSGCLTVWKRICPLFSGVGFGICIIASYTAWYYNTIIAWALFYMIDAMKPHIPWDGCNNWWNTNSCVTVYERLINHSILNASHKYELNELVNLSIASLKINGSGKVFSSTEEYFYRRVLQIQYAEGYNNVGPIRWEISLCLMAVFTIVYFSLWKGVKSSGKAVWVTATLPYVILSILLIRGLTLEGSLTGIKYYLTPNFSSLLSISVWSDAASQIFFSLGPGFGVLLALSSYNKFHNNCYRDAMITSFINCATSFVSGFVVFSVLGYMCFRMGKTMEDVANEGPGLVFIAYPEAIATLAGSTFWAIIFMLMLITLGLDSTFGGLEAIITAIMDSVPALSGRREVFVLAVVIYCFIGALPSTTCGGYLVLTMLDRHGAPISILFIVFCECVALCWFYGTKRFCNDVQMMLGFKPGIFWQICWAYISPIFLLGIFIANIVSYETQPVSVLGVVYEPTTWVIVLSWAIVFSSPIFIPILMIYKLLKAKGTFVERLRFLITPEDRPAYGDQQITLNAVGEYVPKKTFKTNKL

Each molecule was assayed against SmSERT (Schistosoma mansoni, UniProt Q3I1M7) (assay: Transport inhibition constants, SmSERT).
Assay type: cell-based

Point of comparison: `CN(C)CCCN1c2ccccc2CCc2ccc(Cl)cc21` [Clomipramine], Ki 0.2 ± 0.1 µM. Against it:
- CN(C)CCCC1(c2ccc(F)cc2)OCc2cc(C#N)ccc21 (stereo not drawn) [Citalopram] — within error, 0.25 ± 0.1 µM
- Fc1ccc([C@@H]2CCNC[C@H]2COc2ccc3c(c2)OCO3)cc1 [Paroxetine] — within error, 0.1 ± 0.1 µM
